The record followed here is PMC3307390 (Journal of Immunology (Baltimore, Md. : 1950), 2010).

Amino acid sequences for entries named in this document (tags omitted). Residues count along the entry.
UniProt P01920, 33-261 with the stated changes: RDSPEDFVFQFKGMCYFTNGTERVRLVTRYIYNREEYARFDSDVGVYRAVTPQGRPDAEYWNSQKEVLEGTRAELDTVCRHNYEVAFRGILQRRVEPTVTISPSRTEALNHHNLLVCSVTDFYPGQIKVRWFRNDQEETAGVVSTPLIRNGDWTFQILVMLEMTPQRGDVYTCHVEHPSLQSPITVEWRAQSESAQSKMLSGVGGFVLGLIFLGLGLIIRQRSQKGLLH

In general, pIC50 refers to −log10 of the IC50, conventionally taken in molar units. Low values mean a high IC50, high ones a low IC50.

The assay has as its target DQA1*0102/DQB1*0602 (Homo sapiens, UniProt P01909+P01920, A157G/A45G/C70R/E118A/E183D/E77G/F83G/G63E/H151Q/H199R/H252R/H253Q/I129T/I235V/I88M/INS77G/K197Q/L117V/L119F/L178F/L71W/L74F/L85Q/L91A/L98M/N214S/P87R/Q116E/Q76K/R102G/R240Q/R75S/R78G/S102Y/S185I/S41F/S97I/T121G/T122I/T172A/T86R/V229M/V68A/V73E/Y34C/Y41F/Y58L). The assay is described as follows: biochemical. Format: binding.

The structures appear in SMILES notation. pIC50: −log10 of the molar value.

Take `CC(C)C[C@H](NC(=O)[C@H](CC(=O)O)NC(=O)[C@H](CO)NC(=O)CNC(=O)[C@H](Cc1c[nH]cn1)NC(=O)[C@@H](NC(=O)[C@@H](NC(=O)[C@H](CS)NC(=O)[C@H](C)NC(=O)[C@H](CCCCN)NC(=O)[C@H](C)NC(=O)[C@H](CC(=O)O)NC(=O)[C@H](CCCNC(=N)N)NC(=O)[C@@H]1CCCN1C(=O)[C@@H](N)CC(N)=O)C(C)C)C(C)C)C(=O)N[C@@H](CCCCN)C(=O)O`: the pIC50 was 6.42.
